## Ab-95 light chain CDR variants: yeast mating affinities

All variants were tested on one target, the spike HR2 peptide PDVDLGDISGINAS (SARS-CoV-2).

The variants keep the heavy chain, the linker and the frameworks of Ab-95 (scFv order VH, a 15-residue (Gly4Ser)3 linker, VL).
VH: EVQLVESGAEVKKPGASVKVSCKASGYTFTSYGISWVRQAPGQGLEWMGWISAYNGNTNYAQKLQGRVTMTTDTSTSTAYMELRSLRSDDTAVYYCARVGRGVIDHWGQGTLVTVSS
VL: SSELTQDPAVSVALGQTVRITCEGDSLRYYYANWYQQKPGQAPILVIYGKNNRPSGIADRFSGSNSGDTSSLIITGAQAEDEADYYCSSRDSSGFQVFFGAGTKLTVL

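The parent was found by panning a naive human phage display library on the peptide. AAYL52 was designed without a model: most single CDR substitutions and a random sample of double and triple ones. In AlphaSeq, yeast of one mating type display the scFv and yeast of the other type display the target. Pairs that bind mate more often; barcode pairs of the diploids are counted by sequencing. Read counts were normalised to the haploid input and turned into Kd by a linear fit to BCL2-family pairs of known affinity, for each replicate. There are three technical replicates.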

Each variant is given by its three light chain CDRs, as the data file delimits them; those of the parent are EGDSLRYYYAN, GKNNRPS, SSRDSSGFQVF.
The read-out is the apparent dissociation constant on a log10 scale (nM): the lower, the stronger.
The mean shown is taken over the replicates in which the pair was detected.
"no signal" marks a missing value. The strain was present, yet no cells mated with the target were sequenced in any replicate, which points to weak or no binding.

CDR-L1	CDR-L2	CDR-L3	log10 Kd (nM), mean	detected	control signals
EYDSLRYYYAN	GKNNRPM	SSRDGSGFQVF	no signal	0 of 3	0 of 9
EGASLRYYYAN	GKNDRPS	SSRDSSGFQVF	1.72	3 of 3	3 of 9
EQDSLRYYYGN	GKNNRPS	SSRDSSGMQVF	no signal	0 of 3	3 of 9
EGDSLRYTYAN	GKNHGPS	SSRDSSGFQVF	2.87	3 of 3	3 of 9
EGYSLRYYDVN	GKNNRPS	SSRDSSGFQVF	0.96	3 of 3	4 of 9
KGDSLRYYYAN	GKNNRPS	SSCDSSGFVVF	no signal	0 of 3	0 of 9
EGDSLRYYYAW	GKNNRPS	SSRDSHGFQTF	4.12	3 of 3	4 of 9
EGDQLRYYHAN	GKMNRPS	SSRDSSGFQVF	4.47	2 of 3	3 of 9
EGDSLRYRYAN	GKNNRYS	SKRDSSGFQVF	3.10	3 of 3	4 of 9
EGDSLRYYYAN	GKNNRPS	SSRDSSKFQVM	4.38	2 of 3	2 of 9
EGDSLRYYYLN	MKNNRPS	SSRDSSGIQVF	no signal	0 of 3	1 of 9
EGSSLSYYYAN	GKNNRPS	SSRDSSGFQVL	2.45	3 of 3	4 of 9
EHDNLRYYYAN	GKNTRPS	SSRDSSGFQVF	2.51	3 of 3	1 of 9
ELDSLRYYYAN	GPNNRPS	SQRDSSGFQVF	3.67	1 of 3	3 of 9
EGDSLREYYAN	GKNNRTS	SSRDSSGFQVF	3.31	3 of 3	4 of 9
EGDQLRYYYAN	FKNNRPS	SSRDPSGFQVF	4.21	2 of 3	5 of 9
EGDSLRYYYAN	GKNNPPS	SSRDSEGFHVF	no signal	0 of 3	1 of 9
EGDSLRHYYAN	GKMNRPS	SSRDSSPFQVF	4.11	2 of 3	0 of 9
EGDSGSYYYAN	GKNNRPS	SSRHSSGFQVF	3.58	1 of 3	1 of 9
MADSLRYYYAN	GKNNRPS	YSRDSSGFQVF	3.42	2 of 3	1 of 9
ELDSLVYYYAN	GKNNRPS	SSRDSSGFQGF	4.24	3 of 3	1 of 9
FGDSLRYYYAN	GKNNRPS	DSRDSVGFQVF	2.32	3 of 3	2 of 9
EFDSLRYYYRN	GENNRPS	SSRDSSGFQVF	2.74	1 of 3	0 of 9
EGDSLRYYYLN	GKNNRPS	KSRDSSGFQVF	no signal	0 of 3	5 of 9
EGDSLRYYYAN	GKNNRPS	GSRSSSGFQVL	2.49	3 of 3	0 of 9
EGDSLRYYYAV	GKNNRPS	SQRDSSGFQNF	4.10	2 of 3	4 of 9
EGDSLRYHYAN	GKNNRPA	SSRDSGGFQVF	1.44	3 of 3	2 of 9
EGFSLRYYYAN	GSNNRPS	SSRKSSGFQVF	2.91	1 of 3	3 of 9
EGDSLRYYYPN	GKNNRPS	SSRDSSGFHVF	1.67	3 of 3	5 of 9
EGDSLRYYYAN	GKNNRPS	SSHDSSRFQEF	2.49	3 of 3	2 of 9
EGDSLRYYYAM	GFNNNPS	SSRDSSGFQVF	3.75	1 of 3	2 of 9
EGDSLRYYWAN	GWNNRPS	SSRTSSGFQVF	3.83	1 of 3	3 of 9
CGDSLRYYFAN	GKNNRPS	SSRDSSGFQIF	4.05	2 of 3	0 of 9
EGDSLRYYYAN	GKNTRPS	SCYDSSGFQVF	2.82	2 of 3	1 of 9
EGDTLRYYYHN	GKNNRPY	SSRDSSGFQVF	3.95	2 of 3	3 of 9
PGDSLRYYYAN	GKNNRLS	SSRDSSGAQVF	3.37	3 of 3	0 of 9
EGDSLRYYYHN	GRNNRPS	SSRNSSGFQVF	3.81	3 of 3	4 of 9
EGDSDRYYYHN	GKNNRPS	SSRDSSGFKVF	2.88	3 of 3	4 of 9
EVDLLRYYYAN	GKNNRPS	SSRGSSGFQVF	3.53	3 of 3	3 of 9
EGDSLRYYYAN	GHNNRPS	SSRDSSGFPVT	3.35	3 of 3	2 of 9
CPDGLRYYYAN	GKNNRPS	SSRDSSGFQVF	no signal	0 of 3	0 of 9
EGDSLRYQYAN	CKNNRPS	SSRDSEGFQVF	4.01	3 of 3	0 of 9
EPDSLKYYYAN	GKGNRPS	SSRDSSGFQVF	4.70	2 of 3	2 of 9
EGDSHRYYYAN	GKNNRPS	SCGDSSGFQVF	no signal	0 of 3	0 of 9
EGASLRYYYAN	GKNSRPS	SSCDSSGFQVF	3.02	3 of 3	1 of 9
EYASLRYYYAN	GKNNRPS	SSRDSSGFQVF	3.17	2 of 3	4 of 9
NGDSLRYYYAN	GKNNRPS	SSRLSSHFQVF	3.57	3 of 3	0 of 9
EGDSMRYYYAN	NKNNRPS	SSRDSSGFQVF	3.32	2 of 3	2 of 9
EGKVLRYYYAN	GKNNRPS	PSRDSSGFQVF	no signal	0 of 3	3 of 9
EGDSLRYYYAN	GKNNTPS	SSRTSSLFQVF	3.52	3 of 3	1 of 9
EGDSLRYYYAN	GKVNRPS	SSRDSWGPQVF	3.80	1 of 3	4 of 9
EGDSLRYYYAN	GKWNRPS	STRDSCGFQVF	3.46	1 of 3	1 of 9
EGDPLRYYKAC	GKNNRPS	SSRDSSGFQVF	3.86	3 of 3	5 of 9

The 3 strongest on average among those seen in every replicate, once more:

{"CDR-L1": "EGYSLRYYDVN", "CDR-L2": "GKNNRPS", "CDR-L3": "SSRDSSGFQVF", "log10 Kd (nM), mean": "0.96", "detected": "3 of 3", "control signals": "4 of 9"}
{"CDR-L1": "EGDSLRYHYAN", "CDR-L2": "GKNNRPA", "CDR-L3": "SSRDSGGFQVF", "log10 Kd (nM), mean": "1.44", "detected": "3 of 3", "control signals": "2 of 9"}
{"CDR-L1": "EGDSLRYYYPN", "CDR-L2": "GKNNRPS", "CDR-L3": "SSRDSSGFHVF", "log10 Kd (nM), mean": "1.67", "detected": "3 of 3", "control signals": "5 of 9"}

Three control strains display no target. For library AAYL52, 28% of the pairings with them gave a signal, with a median of 3.91 and one signal in twenty below 2.90, so weak values seen in few replicates may be background. The control count says in how many pairings with the empty strains this scFv gave a signal.
For reference, the parent read 2.31 as the reference entry and 2.25 as a member of this library.

Source: Engelhart et al. 2022 (doi:10.1038/s41597-022-01779-4), MIT Lincoln Laboratory and A-Alpha Bio; data file from the FLAb repository.